For 1 substance, dissociation in water results are on record in patent US11725096B2, “Zinc oxide complexes” (MARY KAY INC., priority 2010, dated 2023).

The data set can be described thus: Solubility / dissociation of the complexes in water.

For zinc oxide/salicylic acid complexes, the dissociation in water result is “do not dissociate easily in water”.
